KCNH2 WT inh: blocks the wildtype human KCNH2 potassium channel. Q12809. U2OS, BacMam KCNH2, thallium flux FluxOr; active compounds read low. activity change, % at 1.84 µM. 0.37% of 340,000 active. AID 720551;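 active = maximum activity change below -70%; inconclusive = maximum activity change between -70% and -50%; inactive = maximum activity change above -50%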
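U2OS cells transduced with wild-type KCNH2 virus are loaded with FluxOr dye for 45 min, and thallium flux is measured in kinetic reads before and after stimulation buffer. Rate constants are normalized to DMSO controls.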
Rango complex inh: Rango-importin beta binding inhibition; 0.031% of 340,000 active; Rango CFP/YFP FRET sensor + importin beta, 45 min; AID 540263; Potency, µM (doses to about 92.2 µM); Q14974; note: nearly all actives have a fitted effect of over 15% in size
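FRET biosensor (snurportin 1 IBB flanked by EYFP and cerulean), 50 nM, with compound 5 min, then 0.125 microM importin beta in PBS, 1 mM DTT, 0.02% Tween-20, 0.1% BSA. CFP/YFP ratio read after 45 min at room temperature; pre-read flags interference.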
Rango dissoc inh: inhibition of RanGTP-driven Rango-importin beta dissociation | Biochemical FRET Rango-importin beta, RanGTP-induced dissociation | O95149+P62826 | Potency, µM (top dose mostly 46.1 µM) | 0.071% of 340,000 active; note: nearly all actives have a fitted effect of over 45% in size
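Compounds sat 5 min at room temperature with 0.1 uM Rango biosensor plus 0.25 uM importin beta, then FRET pre-read. RanGTP-RCC1 (0.6 uM Ran, 2mM GTP, 0.2 uM RCC1) added for 45 min, and the CFP/YFP post-read measured blocked complex dissociation.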
KCNH2 3.1 inh: KCNH2 3.1 (human) potassium channel inhibition. U2OS KCNH2 3.1, thallium flux FluxOr; active compounds read low. activity change, % (tested at about 1.8 µM). 0.95% of 340,000 active;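 active = maximum activity change below -70%; inconclusive = maximum activity change from -70% to -50%; inactive = maximum activity change above -50%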;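 note: thallium influx rate constant from kinetic fluorescence after stimulation buffer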
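Normalized rate constant (relative to positive and negative DMSO controls) derived from a 2 min kinetic fluorescence read after stimulation; U2OS cells expressing the 3.1 isoform via virus at 1.77 x 10^8 /mL.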
Large screens that a line does not name were inactive. Only some compounds are listed: those with a hit (about 1.3% of all), similar ones and a draw of the others. Unless noted, calls come from the whole dose curve.

O=C(CSc1nnc2ccccn12)NNC(=O)c1cccc(Cl)c1	none
CCCCCCC(=O)NN1CCN(C)CC1	KCNH2 WT inh -256.9
Nc1nc(CN2CCN(Cc3ccc4c(c3)OCO4)CC2)nc(Nc2ccccc2)n1	KCNH2 3.1 inh -76.4
Cc1ccccc1Nc1nc(N)nc(CN2CCN(Cc3ccc4c(c3)OCO4)CC2)n1	none
Cc1ccc(NC(=O)N2CCN(C(=O)c3ccco3)CC2)cc1Cl	none
Cc1ccc(Nc2nc(N)nc(CN3CCN(C(=O)c4ccco4)CC3)n2)cc1Cl	KCNH2 3.1 inh -93.8
Nc1nc(CN2CCN(C(c3ccccc3)c3ccccc3)CC2)nc(Nc2ccccc2)n1	KCNH2 3.1 inh -98.1
CC1CC(C)CN(Cc2nc(N)nc(Nc3ccccc3)n2)C1 (centres undefined)	none
CC1CC(C)CN(Cc2nc(N)nc(Nc3ccc4ccccc4c3)n2)C1 (centres undefined)	KCNH2 3.1 inh -112.6
O=[N+]([O-])c1ccc(S(=O)(=O)NCCS(=O)(=O)N2CCN(c3ccccc3)CC2)cc1	none
CCN(c1ccccc1)S(=O)(=O)c1cccc(C(=O)Nc2cccc(C)n2)c1	none (no result: Rango complex inh, Rango dissoc inh)
Nc1nc(CN2CCC(Cc3ccccc3)CC2)nc(Nc2ccccc2)n1	KCNH2 WT inh -90.4, Rango dissoc inh inconclusive, KCNH2 3.1 inh -87.5
Cc1ccc(Nc2nc(N)nc(CN3CCN(c4ccccc4F)CC3)n2)cc1	KCNH2 3.1 inh -86.3
Nc1nc(CN2CCCCCC2)nc(Nc2ccccc2)n1	none
O=C(CC(=O)c1c(F)cccc1Cl)c1ccccc1O	none
Cc1ccc(CN2CC[C@H]3C=CCc4cccc(c43)C2)cc1	none (no result: KCNH2 WT inh, KCNH2 3.1 inh)
COc1ccc(CN2CC[C@H]3C=CCc4cccc(c43)C2)cc1	KCNH2 3.1 inh -84.8
CCOc1ccc(NS(=O)(=O)c2ccc(C(=O)NNC(=O)c3ccccc3O)cc2)cc1	none
Cn1c(=O)[nH]c(=O)c2c1nc(SCCN1CCCCC1)n2CCCc1ccccc1	none
C=CCn1c(SCCN2CCCCC2)nc2c1c(=O)[nH]c(=O)n2C	none
Cc1cccc(Cn2c(SCCN3CCCCC3)nc3c2c(=O)[nH]c(=O)n3C)c1	KCNH2 3.1 inh -81.0
Cn1c(=O)[nH]c(=O)c2c1nc(SCCN1CCCCC1)n2Cc1ccccc1	KCNH2 3.1 inh -73.6
Cc1ccc(Cn2c(SCCN3CCCCC3)nc3c2c(=O)[nH]c(=O)n3C)cc1	KCNH2 3.1 inh -94.8
O=C(NC(=S)NN1CCOCC1)c1cc(Br)ccc1Cl	none
C[C@@H]1CN(S(=O)(=O)C(C)(C)C)[C@H](CCO)/C1=C\c1ccccc1	none
N#Cc1ccc(CN2CCN(C(=O)CN3C(=O)NC4(CCCC4)C3=O)CC2)cc1	none
COc1ccc(CN2CCC(C(=O)N(C)CCc3ccc(OC)c(OC)c3)CC2)c(OC)c1	none
CCN(Cc1ccccc1)C1CCN(Cc2ccccc2)CC1	none
CCCN1CCC(N(CCc2ccccc2)Cc2ccccc2)CC1	KCNH2 3.1 inh -75.2
COc1ccc(CN2CCC(N(CCc3ccccc3)Cc3ccccc3)CC2)c(OC)c1	KCNH2 WT inh -72.4, KCNH2 3.1 inh -107.1
COC(=O)c1nnn(-c2ccc(Cl)c(Cl)c2)c1C(=O)OC	none
COC(=O)c1nnn(-c2ccc(F)c(Cl)c2)c1C(=O)OC	KCNH2 3.1 inh -70.3
O=C(NC1CCS(=O)(=O)C1)c1ccc(N2CCCCC2)c([N+](=O)[O-])c1 (centres undefined)	none (no result: KCNH2 3.1 inh)
COC(=O)C1C(=O)CC(C)(O)C(C(=O)OC)C1/C=C/c1ccccc1 (centres undefined)	none
CCOC(=O)C1C(=O)CC(C)(O)C(C(=O)OCC)C1/C=C/c1ccccc1 (centres undefined)	KCNH2 3.1 inh -106.0
CCC[N+](CC#Cc1ccccc1)(CCC)CC(=O)OCC	KCNH2 3.1 inh -71.0
CCC[N+](CC#Cc1ccccc1)(CCC)CC(=O)OC	none
O=C(C[C@H]1C/C=C\C[C@@H](Cc2ccc(F)cc2)C(=O)OC[C@@H]2CCCN2C1=O)NCCO	none (no result: KCNH2 WT inh, KCNH2 3.1 inh)
S=c1nc(SCc2ccccc2)[nH]c2ccccc12	KCNH2 WT inh inconclusive, KCNH2 3.1 inh -128.1
c1ccc(CSc2nc3ncncc3[nH]2)cc1	none
Cc1cccc(OCC(=O)NCC(C)(C)N2CCOCC2)c1	KCNH2 3.1 inh -153.1
CCN(Cc1ccc(OC)c(F)c1)C(=O)/C=C/c1ccc(S(=O)(=O)N2CCOCC2)cc1	none
CN(C)Cc1c(C(=O)N/N=C/c2ccc(-c3ccccc3)cc2)nnn1-c1nonc1N	KCNH2 3.1 inh -93.1
CCN(CC)Cc1c(C(=O)N/N=C/c2ccc(OCc3ccccc3C)cc2)nnn1-c1nonc1N	KCNH2 WT inh -122.9, KCNH2 3.1 inh -96.3
Cc1nc(SCc2nc3ccc(C(F)(F)F)cc3[nH]2)c2oc3ccccc3c2n1	none (no result: KCNH2 WT inh, KCNH2 3.1 inh)
O=S(=O)(N1CCOCC1)N1CCOCC1	none
O=C(Cn1cc(F)c(=O)[nH]c1=O)c1ccco1	none (no result: Rango complex inh, Rango dissoc inh)
Cc1cccc(NC(=O)NNC(=O)c2cc3occc3[nH]2)c1C	KCNH2 3.1 inh -449.3
NC1(C(=O)O)CCCCC1c1ccccc1 (centres undefined)	none
CC1(C)CC(=O)CC2(C1)NCC(c1ccccc1)c1c2[nH]c2ccccc12 (centres undefined)	KCNH2 WT inh -74.9, KCNH2 3.1 inh -101.6
COc1cccc(C2CNC3(CCCC(C)C3)c3[nH]c4ccccc4c32)c1OC (centres undefined)	none
COc1ccc(C)cc1N(C(=O)COc1ccccc1)c1nc2ccccc2s1	KCNH2 WT inh inconclusive, KCNH2 3.1 inh -74.0
Cc1cccc2cc(C#N)c(N3CCOCC3)nc12	Rango complex inh inconclusive, Rango dissoc inh 18.4µM
O=C(Nc1nnc(SCC(=O)N2CCCCC2)s1)c1ccc(F)cc1F	KCNH2 WT inh -152.4
O=C(NC1CCCCC1)C1(S(=O)(=O)c2ccc(Cl)cc2)CC1	none
Nc1ccc(C(=O)O)c(O)c1	none
Cc1ccc(N)cc1O	Rango complex inh inconclusive, Rango dissoc inh 23.1µM
CC(CCc1ccccc1)NC(=O)C(=O)NCCO (centres undefined)	KCNH2 3.1 inh -77.6
Cc1c(Cc2ccccc2)c(=O)oc2cc(OC(C)C(=O)NCC3CCC(C(=O)O)CC3)c(Cl)cc12 (centres undefined)	none
COC(=O)C(=O)/C=C(\O)c1c(C)cc(C)cc1C	Rango complex inh 65.1µM
CCCC(CC)Sc1nc2c([nH]1)c(=S)n(C)c(=O)n2C (centres undefined)	KCNH2 WT inh -92.4
CCCCC(C)Sc1nc2c([nH]1)c(=S)n(C)c(=O)n2C (centres undefined)	KCNH2 WT inh -144.4, KCNH2 3.1 inh inconclusive
Cn1c(=S)c2[nH]c(SCCC(C)(C)C)nc2n(C)c1=O	KCNH2 WT inh -114.7
O=C(/C=C/c1cc(Br)ccc1F)OCC(=O)N1CCOCC1	none
N#Cc1c(N2CCN(c3ccc([N+](=O)[O-])cc3)CC2)[n+](=O)c2ccc(Cl)cc2n1[O-]	KCNH2 WT inh inconclusive, Rango complex inh inconclusive, Rango dissoc inh inconclusive, KCNH2 3.1 inh -96.5
O=C(c1cc(-c2cccc(Cl)c2)on1)N1CCCC1	KCNH2 3.1 inh -130.9

Screening results from PubChem BioAssay.
